From PubChem BioAssay AID1259318 (Sanford-Burnham Center for Chemical Genomics, 2017)
The entries are a selection whose mix differs from that of the whole data set. Active and inactive are the calls of the source.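 How the source made its calls: active means activity above about 14% (limit read from the data; passing the limit was not always enough); inactive means the rest.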

By UniProt entry, the sequences of proteins in these tests, tags left out.
UniProt P20393, whole entry, looked up: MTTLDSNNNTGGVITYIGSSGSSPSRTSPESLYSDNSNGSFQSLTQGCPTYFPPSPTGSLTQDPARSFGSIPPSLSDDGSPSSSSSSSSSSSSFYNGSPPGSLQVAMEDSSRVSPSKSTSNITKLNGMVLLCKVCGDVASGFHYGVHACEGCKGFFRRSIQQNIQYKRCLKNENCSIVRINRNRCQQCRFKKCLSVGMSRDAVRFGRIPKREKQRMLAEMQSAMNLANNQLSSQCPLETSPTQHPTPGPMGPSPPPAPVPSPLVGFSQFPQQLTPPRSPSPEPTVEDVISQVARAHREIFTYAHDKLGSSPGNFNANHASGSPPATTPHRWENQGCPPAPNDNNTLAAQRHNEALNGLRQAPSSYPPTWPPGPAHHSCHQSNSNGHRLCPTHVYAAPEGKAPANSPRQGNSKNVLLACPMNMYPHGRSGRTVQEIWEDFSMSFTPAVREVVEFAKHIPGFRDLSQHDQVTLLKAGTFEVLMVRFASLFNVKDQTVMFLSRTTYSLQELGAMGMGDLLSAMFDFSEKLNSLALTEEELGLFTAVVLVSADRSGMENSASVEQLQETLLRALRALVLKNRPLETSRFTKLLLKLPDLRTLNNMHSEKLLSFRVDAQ

Biological target: Nuclear receptor subfamily 1 group D member 1 (Homo sapiens) (UniProt P20393)
Assay: modulators of Rev-erb alpha DNA binding, primary screen, biochemical, FITC-DNA, fluorescence polarization, uHTS (AID 1259318);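 further: 0% = DMSO wells with 35 nM protein and 100% = DMSO wells with 750 nM protein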
Details: Rev-erbα–FITC-DNA binding, 90 min, at 10 µM, stronger effect = higher value

Compound	activity
CN(CCCl)CCCl	inactive: -0.7%
CCC(=O)N(c1ccccc1)C1(COC)CCN(CCc2cccs2)CC1	inactive: 2.08%
CCC(=O)N(c1ccccc1)C1(COC)CCN(CCn2nnn(CC)c2=O)CC1	inactive: 5.68%
